The nature of the series: Octanol/water partition coefficient (Log P). The class given is physicochemical. Particulars: partition coefficient octanol/PBS buffer 0.1× pH 7.4, triplicate. The protocol: Pharm. Hung. 62 (1-2): 55-64, wherein 2 phases are used, an aqueous phase comprising a buffer solution PBS 0.1× pH 7.4 that is saturated with an n-octanol solution that comprises the organic phase.
Stock solutions at 1.0 mg/mL of each quinoline being studied were prepared in PBS buffer 0.1× pH 7.4 saturated in octanol. […] Starting from these solutions, dilutions were made for a range concentration of between 1.0 mg/mL and 100 μg/mL to establish their maximum absorbance in the UV-visible region.
Then the tested quinolines were dissolved in PBS 0.1× pH 7.4 saturated in n-octanol and agitated for 30 min. at room temperature. Subsequently, this emulsion was left to settle for 48 h and a centrifugation at 3,000 rpm for 10 minutes was carried out to separate the phases. Both the octanol/water partition coefficient and Log P were established using the difference in the absorbance in the UV-visible region for each compound using equation 1:
[THQ in octanol]=[THQ start]−[THQ buffer] Éq. 1:
The concentrations for THQ start are established using equation 2: […]
Subsequently, the P quotient in established between both phases as described by equation 3: […]
Finally the partition coefficient is established by Log P.
For this test 2 controls were used: clidinium bromide that is a quaternary amine that is not liposoluble, and sodium thiopental, which is a very liposoluble barbituric anaesthetic. […]

Regarding 2-(9-aminophenyl)quinoline [THQ 56], the “Log P (experimental)” value is on record as 0.293 + 0.002.
